Experiment: Glutathione reactivity assessed as second-order rate constant at 250 uM at pH 6.0 by HPLC-UV method

SMILES: C=C1Cc2cc(OC)c(OC)cc2C1=O
- K: 4.6 M⁻¹ s⁻¹
